# Measured affinities in a library of Ab-14 light chain variants

The measurements come from Li et al. 2023 (doi:10.1038/s41467-023-39022-2) through the FLAb antibody collection.

Binding partner: SARS-CoV-2 spike HR2 peptide, sequence PDVDLGDISGINAS.

Each scFv is VH, the linker GGGGSGGGGSGGGGS, VL, as in the parent Ab-14, and differs from it in the CDRs of the light chain only.
VH: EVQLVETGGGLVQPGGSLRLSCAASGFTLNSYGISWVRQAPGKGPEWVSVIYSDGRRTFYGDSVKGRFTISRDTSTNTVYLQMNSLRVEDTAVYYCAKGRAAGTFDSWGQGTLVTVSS
VL: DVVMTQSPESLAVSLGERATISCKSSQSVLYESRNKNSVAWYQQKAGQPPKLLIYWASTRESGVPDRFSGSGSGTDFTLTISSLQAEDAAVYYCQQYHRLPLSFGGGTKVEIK

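The variants were designed computationally from a first round of random CDR variants and then made and measured. Group labels follow the data file (Ctrl: baseline library sampled from a position-specific scoring matrix, with some repeated check sequences; En: ensemble of fine-tuned language models; GP: Gaussian process model; HC: hill climbing; Gen: genetic algorithm; Gibbs: Gibbs sampling; a sequence that several methods proposed may carry one label only). The assay is AlphaSeq: two haploid yeast populations carry antibody and antigen on their surface. Binding brings cells together so that they mate, and sequencing counts the barcode pairs among the diploids. Scores were corrected for input abundance and mapped to Kd with protein pairs of known affinity run in the same pool. There are six technical replicates.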

The parent's light chain CDRs are KSSQSVLYESRNKNSVA, WASTRES, QQYHRLPLS; each variant's own CDRs replace them letter for letter. Scale: log10 of Kd in nM, estimated from mating counts; low values are strong binders. Averages over replicates are reported, and they cover detected replicates only. An entry "not detected" has no value in the source: the pair was not observed among the diploids in any replicate. This suggests poor binding but is not conclusive. Entries are sorted by rising average, undetected variants last. Of ten entries with the parent sequence, four were seen in most replicates (averages 0.34 to 2.37), three in one and three in none, so single entries are noisy. Background: pairings of all light chain designs with three empty control strains gave a value in 4% of cases (median 2.64, 5th percentile 1.59). Values in that range, when seen in few replicates, are hard to tell from nonspecific mating. A sequence measured in both rounds can read differently, since the two assays cover different ranges. The authors averaged sequences with at least three values out of six and counted those with two or fewer as poor binders.

CDR-L1,CDR-L2,CDR-L3,group,"mean, log10 nM",seen in
KVSQSWLYESRNKNSVA,NASTRED,QQYHRLPLS,GP_Gen,-0.42,6 of 6
KISQSDLYESRNKNSVA,DASTRES,QQYHRLPLS,GP_HC,-0.36,6 of 6
KLSQSELMESRNKNSVA,NASTRLS,QQYHRLPLS,GP_Gen,-0.27,6 of 6
KVSQSVLYEWRNKNSVA,DASTRES,QQYHRLPLS,GP_HC,-0.22,6 of 6
KLEQSWLYESRNKNSVA,NASTRSS,QQYHRLPLS,GP_Gen,-0.16,6 of 6
KSSISGLYESRNKNSVA,EASTRES,QQYHRLPLS,GP_HC,-0.12,6 of 6
KFGQGVLYESRNKNSVA,GASQRES,QQYHRLPLS,GP_HC,-0.08,6 of 6
KMSQSVLYEDRNKNSVA,NASTRMS,QQYHRLPLS,GP_Gen,-0.08,6 of 6
KLSQSVEYESRDKNSVA,DAQTRES,QQYHRLPLS,GP_Gibbs,-0.07,6 of 6
KVSPSYLYESRNKNSVA,DASTRES,QQYHRLPLS,GP_HC,-0.06,6 of 6
KLEQSELYESRNANSVA,NASTRMS,QQYKRLPLS,GP_Gibbs,-0.03,6 of 6
KLMQSVLYESRNKNSVA,NASTRSS,QQYHRLPLS,GP_Gen,0.10,6 of 6
KLSPEEQYESRNKNSVA,NASLRES,QQYHRLPLS,GP_Gibbs,0.10,6 of 6
KFSQMANSMSVSKSAVA,EMSTRPE,QQYNRLPLS,En_Gen,0.25,6 of 6
KFSQSVDYESRNKASVA,DASTRMS,QQYHRLPLS,GP_Gibbs,0.25,6 of 6
KSSISWLYESENKNSVA,EASQRES,QQYHRLPLS,GP_HC,0.25,6 of 6
KLPQSDLYEGRNSNSVA,NGSTRFS,QQYHRLPLS,GP_Gibbs,0.27,6 of 6
KLSQSWLYESRNKNSVA,HGSTRES,QQYHRLPLS,GP_HC,0.29,6 of 6
KFSQSVLYESRNSNSVA,NAQTRLW,QQYHRLPLS,GP_Gibbs,0.37,6 of 6
KSGQGGLYESRNKNSVA,RASTRES,QQYHRLPLS,GP_HC,0.38,6 of 6
KQSQSVLQESRNKNSVA,NASTRES,QQYHRLPLS,GP_HC,0.39,6 of 6
TISQSTLMTGLNRNSVA,QAEERLE,QQYHRLPLS,En_HC,0.42,6 of 6
SVSNLGMVPSVWENSIA,DTTIVEE,QQYSRLPLL,En_Gibbs,0.43,6 of 6
MLTISGDETHEKAFSIA,NVTNKAY,QQYARLPLT,En_Gibbs,0.46,6 of 6
ILQQSMLYESRMKNSVA,NASQRWS,QQYHRLPLS,GP_Gibbs,0.47,6 of 6
TLYGLSVSMSKNKNNVA,EMTTREK,QQYDRLPLI,En_Gen,0.81,6 of 6
KVSQQNLYESRMKNSVA,MASQREM,QQYHRLPLS,GP_Gibbs,0.82,6 of 6
KLGDMVHTESRKKNSIA,DMRTRES,QQYYRLPLS,En_HC,0.87,6 of 6
KLSVSWLYESIEKNSVA,ERSTREE,QDYNRLPLS,En_HC,0.88,6 of 6
MMSQVSGQGTRHRNNVA,QTSMRET,QQYDRLPLI,En_Gen,0.89,6 of 6
HMSMLTMMGMKQRNSVA,QMTMREN,QQYDRLPLM,En_Gen,0.92,6 of 6
MMSQVQGLGQRHRNNVA,QTSTRED,QQYDRLPLI,En_Gen,1.02,6 of 6
GIHSQMVGTIAVFQNVA,NANTRLM,QQYSRLPLS,En_Gibbs,1.04,6 of 6
KSSQSVLYESTNLNSVA,WASTRES,QQYHRLPLS,Ctrl,1.11,6 of 6
MISQLFMYGSRNYNSVA,QASTRES,QQYHRLPLI,En_HC,1.11,6 of 6
KIYELGKGNIKTANNIA,QTDIRML,QSYNRLPLS,En_Gibbs,1.15,6 of 6
KSSQSVLYESRNKNSVA,WASTRES,QQCHRCPLS,Ctrl,1.24,1 of 6
MMSQVTGSGQRHRNNVA,QTSEREP,QQYDRLPLI,En_Gen,1.33,6 of 6
KSSISYLIESMNKNSVA,EASTRES,QQYHRLPLS,GP_HC,1.47,5 of 6
NVSQMVLTGQTLRNSVA,HASTRFN,QQYHRLPLI,En_HC,1.60,6 of 6
KSSQSVLYESPNKNSVA,WASVRES,QQYKRLPLS,Ctrl,1.85,6 of 6
KWSQSVPMGDRNKNSVA,SAHKRMS,QQYHRLPLS,GP_Gibbs,2.00,6 of 6
KFMQSMSYENRNKNSVA,TASERES,QQPHQLPLS,Ctrl,2.00,1 of 6
KLSISYLFESLEKNSIA,ENSTRES,QHYHRLPLS,En_HC,2.10,2 of 6
KSSYHVLYESRNKNSVA,WASTRES,QQYHRLPLS,Ctrl,2.12,1 of 6
KLSQMVGGESRNKSSLA,DNSTRES,QQYHRLPLS,En_HC,2.18,6 of 6
KIHELGKGNWKTANNIA,QTDIRMS,QSYNRLPLS,En_Gibbs,2.20,6 of 6
KIQWYPLEIRGTISAVA,EAATRYN,QQYMRLPLM,En_Gibbs,2.27,5 of 6
KSDQSVLYESNNKNAVA,WASTRES,QQYHRLPLS,Ctrl,2.36,6 of 6
KSSQSVLYESRNNNSVA,WASTRAS,QQYHRLPWS,Ctrl,2.37,2 of 6
KVSEFMRGLTQRKDSIA,DNVTRNK,QQYDRLPLS,En_Gen,2.43,4 of 6
MLGELVMGLSRNYRSVA,DNSTREQ,QQYDRLPLS,En_Gen,2.59,4 of 6
KSSQSVLYEDRNKRSVA,WASQRES,QTYERLPLS,Ctrl,3.01,1 of 6
KSDQSVLYESLNFNSVA,WRSTRES,QQYHRLPLS,Ctrl,not detected,0 of 6
KSSQSVPYESRNKNSVA,WASTRES,QQHHRLPLS,Ctrl,not detected,0 of 6
MMLSHSLEVQNIQNAVA,EASMVYD,QQYVSLPLS,En_Gibbs,not detected,0 of 6
KSSQSVLYESRNKNSVA,WASTRES,AQYIRLPLS,Ctrl,not detected,0 of 6
KISQMVRVGATVSNSIA,EEVTRAK,QQYHRLPLS,En_Gen,not detected,0 of 6